Measurements as given in PubChem BioAssay AID651558 (National Center for Advancing Translational Sciences (NCATS), 2012).
Only a part is listed here, and it is no random draw. Results filed as inconclusive are left out. Activity calls are given as the source filed them. Calls come from the whole dose curve; as a rule, active = well fitted inhibition curve with a large enough effect; inconclusive = small, poorly fitted or top-dose-only effect; inactive = no such curve, though single readings can be large or run the other way.

Experiment: qHTS Assay to Find Inhibitors of Chronic Active B-Cell Receptor Signaling: Hit Validation in Primary Screen; note: nearly all actives have a fitted effect of over 75% in size
Conditions: ABC-DLBCL IkB-luc/CBR ratio luminescence, 4 h; at 46.1 µM (top of the series)
Excerpt: Diffuse large B-cell lymphoma (DLBCL) is the most common category of non-Hodgkin lymphoma, with ~20,000 new cases per year in the United States. DLBCL should be regarded as a collection of different neoplasms. Microarray gene expression analysis has defined two principal types of DLBCL, named for their similarity to normal B cell stages or activation states: a germinal center B-cell (GCB) type, and an activated B-cell (ABC) type. In ABC-DLBCL, a constitutive high-level activity of the NF-kappaB family of transcription factors has been observed (1) and NF-kappaB target genes are more highly expressed in ABC primary tumors than in GCB tumors. […] Following the addition of doxycycline to induce expression of the luciferases, the green luminescence in control cultures rises only slowly because the CBG fusion partner IkappaBalpha is targeted by IKK activity for rapid degradation. In contrast, green luminescence rises rapidly in the presence of proteasome inhibitors or IKK inhibitors. The rise in red luminescence of CBR is not affected by proteasome or IKK inhibitors, and serves as normalization for cell number and nonspecific effects. […]
Cells were seeded in 1536-well plates at 5000 cells/4uL in IMDM medium containing 0.5% FBS, w/o phenol red, 1% penicillin/streptomycin. […] The %Activity was determined from the ratio of corrected green/red luminescent values. […]
% is set by controls: 0 for no effect and ±100 for the full control effect.

Row | SMILES | activity change, negative = inhibition
1 | COc1ccc(C2=NCC(CBr)S2)cc1 (stereo unspecified) | inactive: 37.5%
